The values that follow come from patent US20120202814A1, “COMPOUNDS WITH DDX3 INHIBITORY ACTIVITY AND USES THEREOF” (UNIVERSITÀ DEGLI STUDI DI SIENA, priority 2009, published 2012).

Sequences of proteins named here, by UniProt entry; tags and fusion partners are left off.
UniProt O00571, whole entry: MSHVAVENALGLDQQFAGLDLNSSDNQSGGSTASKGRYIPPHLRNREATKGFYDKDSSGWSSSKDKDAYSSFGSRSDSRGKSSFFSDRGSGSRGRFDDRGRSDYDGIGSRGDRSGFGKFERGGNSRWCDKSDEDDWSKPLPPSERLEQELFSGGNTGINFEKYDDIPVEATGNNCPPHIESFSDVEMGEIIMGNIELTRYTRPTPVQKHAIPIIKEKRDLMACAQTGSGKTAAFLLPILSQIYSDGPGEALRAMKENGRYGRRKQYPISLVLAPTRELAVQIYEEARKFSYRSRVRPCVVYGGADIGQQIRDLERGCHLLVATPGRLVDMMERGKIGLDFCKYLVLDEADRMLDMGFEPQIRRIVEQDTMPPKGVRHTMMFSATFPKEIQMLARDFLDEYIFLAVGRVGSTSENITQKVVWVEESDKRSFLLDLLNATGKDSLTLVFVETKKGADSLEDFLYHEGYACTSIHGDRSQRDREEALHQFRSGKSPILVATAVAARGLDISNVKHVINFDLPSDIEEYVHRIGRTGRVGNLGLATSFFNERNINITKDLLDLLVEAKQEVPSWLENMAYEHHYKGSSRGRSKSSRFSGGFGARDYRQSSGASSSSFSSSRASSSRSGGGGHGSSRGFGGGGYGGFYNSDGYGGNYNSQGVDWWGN

Assay [1] concerns the target human DDX3 (ATPase activity) (Homo sapiens, UniProt O00571). The experiment in a line: Human DDX3 ATPase activity assay (luciferase-based luminescence). The note with it: read-out: Ki (μM), apparent equilibrium dissociation constant for the inhibitor to the target enzyme DDX3. As for the experimental part: ATPase activity was tested with a luciferase-based luminescence assay (Easylite-Kinase, Perkin Elmer) on 96 wells microtiter plates. Briefly, recombinant purified human DDX3 (50-100 ng) was incubated in a 15 μL total reaction volume with reaction buffer (25 mM TrisHCl pH 7.5, 5 mM MgCl2), in the presence of increasing amounts of ATP and/or different combinations of ATP and the inhibitor to be tested. Reference curves in the absence of inhibitor (giving the 100% of enzymatic activity) and in the absence of enzyme (giving the baseline), were also included in each experiment. Reading was performed with a Microbeta Trilux (Perkin Elmer) luminometer, according to the manufacturer's protocol.
ATPase reactions were performed as described, in the presence of increasing amounts of inhibitor and variable ATP concentrations. Variations of the initial velocities of the reaction as a function of ATP concentrations in the absence or presence of 4 were analyzed with the equation: […]
where Vmax is the apparent maximal rate of the reaction in the absence of the inhibitor, [I] is the variable inhibitor concentration, n is the cooperativity index and Ki(app) is the apparent inhibition constant. […] F test was used to compare the two fittings and p value was calculated. […]

For assay [2], the system named is cervical cancer HeLa cell line. The experiment in a line: Antiproliferative activity against HeLa cells (CellTiter viability assay). As for the experimental part:
Selected compounds from Table 1 were tested against the cervical cancer HeLa cell line for antiproliferative activity. Cell viability was measured with the CellTiter viability assay (Table 2). Table 3 lists the calculated antiproliferative potencies (EC50, dose required to suppress 50% of cell viability) for a series of representative compounds of the invention.

Structures are written as SMILES. Read-outs that look alike come from different tables or passages of the source.

As usually defined, the EC50 is the concentration at which the effect is half-maximal. Turning to `Oc1ccccc1/C=N/Nc1nc(NCc2ccc(F)cc2)nc(N2CCOCC2)n1`, in assay [1], the Ki came out at 0.6 µM. For the same compound, the EC50 came to 5 µM in assay [2] (read-out: EC50 (μM) 48 hours, dose required to suppress 50% of cell viability, 48 hours) and 2 µM in assay [2] (read-out: EC50 (μM) 72 hours, dose required to suppress 50% of cell viability, 72 hours).
